TDP1 block – inhibitors of human tyrosyl-DNA phosphodiesterase TDP1; Q9NUW8; recombinant TDP1, AlphaScreen DNA substrate cleavage; Potency, µM (titrated, usually from 130 µM), for the others: at the highest dose activity change, negative = inhibition, actives largely listed as inhibitors; 350,000 compounds, 0.28% hits; note: potency is the fitted concentration of half-maximal effect; % is set by controls: 0 for no effect and ±100 for the full control effect; nearly all actives have a fitted effect of over 40% in size
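Recombinant E. coli-expressed Tdp1 (1 nM) preincubated with compound 15 min at RT, then 5'-biotin/3'-phosphotyrosine-FITC DNA substrate (15 nM) added for 5 min. AlphaScreen beads (10 ug/ml) added, 10 min RT; tyrosine-FITC cleavage read as signal loss.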
DT40 TDP1 no CPT – qHTS for Inhibitors of human tyrosyl-DNA phosphodiesterase 1 (TDP1): qHTS in cells in absence of CPT; Potency, µM (series often up to 46.2 µM), without a hit: at the highest dose activity change, negative = growth inhibition, usual class: inhibitors; AID 686978, 2013; DT40 Tdp1-/- hTDP1 cells, no CPT, ATP luminescence, 48 h; 420,000 compounds, 15% hits; note: potency is the fitted concentration of half-maximal effect; % is set by controls: 0 for no effect and ±100 for the full control effect; nearly all actives have a fitted effect of over 55% in size
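Growth kinetics read by CellTiter-Glo luminescence after ≥48 hr at 37 °C. Cells: DT40 Tdp1-/- stably carrying human TDP1, 400 per well, compound exposure in the absence of CPT (DMSO vehicle).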
TDP1 cell CPT – growth inhibition of DT40 Tdp1-/-;hTDP1 cells with camptothecin (screen for TDP1 inhibitors) | chicken DT40 Tdp1-/-;hTDP1 cells + 20 nM CPT, ATP luminescence, 48 h | Potency, µM (highest dose often 46.2 µM), inactives show at the top dose activity change, negative = growth inhibition, actives largely listed as inhibitors | 420,000 compounds, 12% hits | AID 686979; note: potency is the fitted concentration of half-maximal effect; % is set by controls: 0 for no effect and ±100 for the full control effect; nearly all actives have a fitted effect of over 55% in size
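Chicken DT40 Tdp1-/- cells complemented with human TDP1, 400 cells/well, exposed to compounds plus 20 nM camptothecin for at least 48 h at 37 C; viability read as ATP content by CellTiter-Glo luminescence.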
uPA generation – blocks generation of uPA at the cell surface; cell surface uPA generation assay, qHTS; AID 540303; 330,000 compounds, 0.31% hits; Potency, µM (top dose mostly 38.3 µM), inactives show top-dose activity change, negative = inhibition, hits mostly inhibitors; active = well fitted inhibition curve with a large enough effect; inconclusive = small, poorly fitted or top-dose-only effect; inactive = no such curve, though single readings can be large or run the other way; tested in mouse RAW 264.7 cells; note: potency is the fitted concentration of half-maximal effect; % is set by controls: 0 for no effect and ±100 for the full control effect; nearly all actives have a fitted effect of over 55% in size
miR-21 reporter – raises the signal of a miR-21 reporter | HeLa miR-21 FLuc reporter, luciferase, 48 h | Potency, µM (doses to about 38.3 µM), for the others: at the highest dose reporter change, positive = more light | 340,000 tested, under 10 active | AID 2288; active = well fitted rising curve with a large enough effect; inconclusive = small, poorly fitted or top-dose-only effect; inactive = no such curve, though single readings can be large or run the other way;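 also: % of control where 0% means no effect; miR-21 action dims this reporter so a rising signal means less miR-21 action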
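HeLa cells endogenously expressing miR-21, stably carrying CMV-driven firefly luciferase with a downstream miR-21 binding site, 2000 cells/well. Titrations up to approximately 40 uM, 48 hours; luciferase luminescence read.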
* = called active by the depositor; ? = inconclusive; . = no result given; [ ] = remark or other dose. A selection: hits, their analogues and other compounds. The true share with any hit is near 16%. Unless noted, calls come from the whole dose curve; as a rule, active = well fitted curve in the direction sought with a large enough effect; inconclusive = small, poorly fitted or top-dose-only effect, or another doubt; inactive = no such curve, though single readings can be large; an effect the other way counts as inactive or inconclusive.

Order of values – TDP1 block, DT40 TDP1 no CPT, TDP1 cell CPT, uPA generation, miR-21 reporter
CCOC(=O)c1c(NC(=O)C2=C(C)NC(=S)NC2c2ccc(C)cc2)sc(C)c1C (centres undefined)
→ -2.7%, 13µM*, ?, -6.8%, -0.6%
CCOC(=O)c1c(NC(=O)C2c3ccccc3Oc3ccccc32)sc(C)c1C
→ 2.1%, 20.6µM*, ?, ., -14.5%
S=C1NC(c2ccccc2)=CC(c2ccccc2)N1 (centres undefined)
→ 4.9%, 29.1µM*, ?, -0.9%, -4.0%
COc1cccc(C(=O)N[C@@H](C)C(=O)N2CCC3(CC2)NCCc2[nH]cnc23)c1
→ 1.4%, -12.0%, -6.3%, 7.8%, 0.3%
CC1CCN(C(=O)CSc2nc(C(C)C)nc3c2c(=O)n(C)c(=O)n3C)CC1
→ 5.5%, 18.4µM*, 16.4µM*, 0.6%, 0.9%
CC(C)c1nc(SCC(=O)N2CCCc3ccccc32)c2c(=O)n(C)c(=O)n(C)c2n1
→ 4.3%, 6.51µM*, 7.31µM*, 9.7%, -1.6%
Cc1cc(NC(=O)CSc2nc(C(C)C)nc3c2c(=O)n(C)c(=O)n3C)no1
→ -2.1%, 16.4µM*, 16.4µM*, 0.1%, 1.4%
CCN1C(=O)c2ccc(C(=O)Nc3nccs3)cc2C1=O
→ 2.3%, -2.2%, -4.2%, -1.4%, -5.3%
O=C(C1=C(O)C(=O)N(CC2CCCO2)C1c1ccccc1)c1ccco1 (centres undefined)
→ ., -14.5%, 1.2%, 2.2%, 2.1%
CC(C)(C)c1ccc(C2C(C(=O)c3ccco3)=C(O)C(=O)N2CC2CCCO2)cc1 (centres undefined)
→ 11.7%, 18.4µM*, ?, 8.0%, -1.3%
CC[C@@H](c1ccccc1)n1c(=O)n2n(c1=O)[C@H]1[C@H](O)[C@H]3O[C@@H]3/C(=N/OCc3ccccc3)[C@@H]1CC2
→ 5.8%[21 µM], ., ., ., .
CCOc1ccc(N(CC(=O)Nc2cc(Cl)ccc2C)S(C)(=O)=O)cc1
→ 3.4%, 23.1µM*, ?, ?, 14.0%
CCOc1ccc(N(CC(=O)Nc2ccccc2Cl)S(C)(=O)=O)cc1
→ ., 25.9µM*, 18.4µM*, 10µM*, -7.4%
CCOc1ccc(N(CC(=O)Nc2ccccc2OC)S(C)(=O)=O)cc1
→ ., ?, ?, ?, 5.9%
O=C(NCCCN1CCc2ccccc2C1)Nc1ccc(Br)cc1
→ 5.6%, ?, ?, 3.7%, -19.0%
O=C(NCC(c1cccs1)S(=O)(=O)c1cccs1)c1ccc(Cl)cc1 (centres undefined)
→ 7.8%, 18.4µM*, ?, ., 5.8%
Cc1ccc(C(=O)NCC(c2cccs2)S(=O)(=O)c2cccs2)cc1C (centres undefined)
→ 5.2%, 20.6µM*, 11.6µM*, ., 2.6%
C=C(C)CN=CC1(C)CCC(C)=CO1 (centres undefined)
→ ., 18.4µM*, 16.4µM*, -1.5%, .
Cc1cccc(C2C=C(c3ccc(C)c(C)c3)Nc3nnnn32)c1 (centres undefined)
→ 2.8%, 2.59µM*, 2.59µM*, ., -4.2%
CCc1ccc(C2=CC(c3cccc(Br)c3)n3nnnc3N2)cc1 (centres undefined)
→ 4.7%, 14.6µM*, 18.4µM*, ., -1.0%
CC(=O)Nc1nonc1-c1nnc(SCC(=O)Nc2ccc(C)cc2)n1-c1ccccc1
→ -3.6%, ?, ?, ., -0.9%
N=c1n(CCO)c2ccccc2n1CCOc1ccc(F)cc1
→ ., -82.0%, 20.6µM*, ., -1.2%
CCOC(=O)Cn1c(=N)n(CCOc2cccc(C)c2)c2ccccc21
→ 8.4%, -22.5%, ?, -0.1%, -0.3%
CCOC(=O)Cn1c(=N)n(CCOc2ccc(Br)cc2)c2ccccc21
→ 2.6%, 16.4µM*, 23.1µM*, -3.6%, 2.3%
Cn1c(N)c(C(=O)CSc2nc3ccccc3n2-c2ccccc2)c(=O)n(C)c1=O
→ 4.2%, 4.8%, -12.4%, 0.0%, -0.9%
CCOc1ccc(CCNC(=O)c2cc3sc(CC)cc3n2C)cc1OCC
→ 4.9%, 11.6µM*, 14.6µM*, ., 8.2%
CCn1c(C(=O)NCCc2ccc(OC)c(OC)c2)cc2sc(Cl)cc21
→ 2.9%, 11.6µM*, 18.4µM*, ., 13.2%
CCOc1ccc(CCNC(=O)c2cc3sccc3n2CC)cc1OCC
→ 6.8%, 5.8µM*, 5.17µM*, -2.4%, ?
Cn1c(C(=O)NCCc2ccccc2)cc2sc(Cl)cc21
→ 2.0%, -18.3%, -17.7%, ., 20.0%
CCn1c(C(=O)NCc2ccccc2OC)cc2sccc21
→ 0.0%, ?, ?, ., 4.4%

Next part, starting with the last 3 of the part before.
Order of values – TDP1 block, DT40 TDP1 no CPT, TDP1 cell CPT, uPA generation, miR-21 reporter
CCOc1ccc(CCNC(=O)c2cc3sccc3n2CC)cc1OCC
→ 6.8%, 5.8µM*, 5.17µM*, -2.4%, ?
Cn1c(C(=O)NCCc2ccccc2)cc2sc(Cl)cc21
→ 2.0%, -18.3%, -17.7%, ., 20.0%
CCn1c(C(=O)NCc2ccccc2OC)cc2sccc21
→ 0.0%, ?, ?, ., 4.4%
O=C(NC1CCCCC1)c1n[nH]c2c1CC(c1ccccc1)CC2 (centres undefined)
→ -2.4%, ?, ?, 0.3%, .
COc1ccc(NC(=O)C(c2ccncc2)n2c(=O)c(-c3ccco3)nc3ccccc32)cc1 (centres undefined)
→ ., 23.1µM*, ?, ., .
O=C(NC1CCCCC1)C(c1cccc2ccccc12)n1c(=O)c(-c2ccco2)nc2ccccc21 (centres undefined)
→ ., 23.1µM*, 16.4µM*, ., .
COc1ccc(C(C(=O)NC2CCCCC2)n2c(=O)c(-c3ccco3)nc3ccccc32)cc1 (centres undefined)
→ ., 25.9µM*, ?, ., .
CC(NC(=O)c1ccccc1NC(=O)c1ccccc1)C(=O)N1CCOCC1 (centres undefined)
→ 8.5%, -16.0%, -3.7%, 1.8%, -9.2%
CN(C)/C=C1\C(=O)NN=C1C(F)(F)F
→ 7.7%, 6.3%, 18.1%, -3.0%, -0.1%
O=C(NCc1ccco1)c1ccc2c(c1)N(Cc1c(F)cccc1Cl)C(=O)c1ccccc1S2
→ 9.3%, 16.4µM*, ?, ., 4.2%
CN(Cc1ccco1)C(=O)c1ccc2c(c1)N(Cc1ccccc1F)C(=O)c1ccccc1S2
→ 0.0%, ?, 20.6µM*, ., -1.8%
CCN(CC)CCCNC(=O)c1ccc2c(c1)N(Cc1c(F)cccc1Cl)C(=O)c1ccccc1S2
→ -2.3%, 14.6µM*, ?, ., 14.1%
O=C(NCc1ccc2c(c1)OCO2)c1ccc2c(c1)N(Cc1c(F)cccc1Cl)C(=O)c1ccccc1S2
→ 4.7%, -24.4%, -3.7%, ., -17.7%
CCN1C(=O)[C@H]2[C@@H](c3ccc(-c4cccc(Cl)c4)c(OC)c3)N3CCCC[C@@]3(C(=O)OC)[C@H]2C1=O
→ -1.2%, 23.1µM*, ?, 1.8%, .
COC(=O)[C@@]12CCCN1[C@H](c1ccc(-c3ccccc3)cc1)[C@@H]1C(=O)N(C)C(=O)[C@@H]12
→ 0.7%, 18.4µM*, 23.1µM*, -0.6%, .
COC(=O)[C@@]12CCCCN1[C@H](c1ccc(-c3cccc(Cl)c3)cc1)[C@@H]1C(=O)N(C)C(=O)[C@@H]12
→ 1.0%, 13µM*, 20.6µM*, 18.5%, .

Two records drawn at random from the list so far, as already listed:
Order of values – TDP1 block, DT40 TDP1 no CPT, TDP1 cell CPT, uPA generation, miR-21 reporter
CCOc1ccc(CCNC(=O)c2cc3sc(CC)cc3n2C)cc1OCC
→ 4.9%, 11.6µM*, 14.6µM*, ., 8.2%
Cc1cccc(C2C=C(c3ccc(C)c(C)c3)Nc3nnnn32)c1 (centres undefined)
→ 2.8%, 2.59µM*, 2.59µM*, ., -4.2%
